# Patent US10669258B2, “3-sulfonyl-5-aminopyridine-2,4-diol APJ agonists” (BRISTOL-MYERS SQUIBB COMPANY, priority 2016, dated 2020)
# Amino acid sequences for entries named in this document (tags omitted).
# UniProt P35414, whole entry: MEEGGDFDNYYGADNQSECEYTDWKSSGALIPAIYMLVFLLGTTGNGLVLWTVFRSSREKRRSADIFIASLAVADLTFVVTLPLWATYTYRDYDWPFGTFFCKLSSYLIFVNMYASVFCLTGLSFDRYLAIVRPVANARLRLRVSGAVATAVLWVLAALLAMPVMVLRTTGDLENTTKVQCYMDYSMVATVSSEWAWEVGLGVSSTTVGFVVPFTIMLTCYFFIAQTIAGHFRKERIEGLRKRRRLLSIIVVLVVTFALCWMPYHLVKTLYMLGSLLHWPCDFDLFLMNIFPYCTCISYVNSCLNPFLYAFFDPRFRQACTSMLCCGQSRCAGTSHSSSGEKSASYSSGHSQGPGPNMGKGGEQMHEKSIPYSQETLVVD
# Target: human APJ receptor (Homo sapiens, UniProt P35414)
# Test: Intracellular cAMP accumulation assay (APJ hcAMP, HTRF)
# Settings: read-out: hAPJ cAMP EC50 Potency range; HEK293 cells stably expressing human APJ receptor; inhibition of forskolin-mediated cAMP production; Table 1
row,Compound,EC50 [µM]
1,CCCCc1nc(O)c(S(=O)(=O)c2ccc(-c3ccncc3C)cc2)c(O)c1N1CCCCC1c1ccccc1 (centres unmarked),0.01 to 0.1
2,CCCCc1nc(O)c(S(=O)(=O)c2ccc(-c3ccncc3C)cc2)c(O)c1N1CCC(C)c2ccccc21 (centres unmarked),0.01 to 0.1
